Experimental findings from patent publication US9573956B2, “Compounds as dual inhibitors of phosphodiesterases and histone deacetylases” (FUNDACIÓN PARA LA INVESTIGACIÓN MÉDICA APLICADA, priority 2013, dated 2017) are described below.

The chains behind the UniProt entries cited, without tags or fusion partners. Residues count along the entry.
UniProt Q08499, 1-748 isoform 11: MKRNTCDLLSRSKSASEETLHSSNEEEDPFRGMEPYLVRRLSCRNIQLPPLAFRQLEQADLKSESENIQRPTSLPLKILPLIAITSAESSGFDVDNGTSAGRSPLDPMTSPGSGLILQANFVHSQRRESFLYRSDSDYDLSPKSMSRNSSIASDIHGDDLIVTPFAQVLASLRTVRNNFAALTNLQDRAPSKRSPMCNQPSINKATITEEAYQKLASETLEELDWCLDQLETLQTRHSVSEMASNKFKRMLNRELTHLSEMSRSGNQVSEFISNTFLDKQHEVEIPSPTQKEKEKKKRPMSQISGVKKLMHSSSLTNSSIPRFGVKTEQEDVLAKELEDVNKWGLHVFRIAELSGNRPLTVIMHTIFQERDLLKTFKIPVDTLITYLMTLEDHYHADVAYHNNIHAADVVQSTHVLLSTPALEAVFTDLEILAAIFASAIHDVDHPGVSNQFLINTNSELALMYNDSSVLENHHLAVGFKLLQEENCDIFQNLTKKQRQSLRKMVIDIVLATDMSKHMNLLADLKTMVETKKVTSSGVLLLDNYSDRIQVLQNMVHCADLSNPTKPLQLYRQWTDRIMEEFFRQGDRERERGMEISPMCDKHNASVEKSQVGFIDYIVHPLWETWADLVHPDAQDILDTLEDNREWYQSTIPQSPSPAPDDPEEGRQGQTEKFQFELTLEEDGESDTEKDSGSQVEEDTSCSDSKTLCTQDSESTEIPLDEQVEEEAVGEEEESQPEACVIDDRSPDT
UniProt P27815, 1-647 isoform 4: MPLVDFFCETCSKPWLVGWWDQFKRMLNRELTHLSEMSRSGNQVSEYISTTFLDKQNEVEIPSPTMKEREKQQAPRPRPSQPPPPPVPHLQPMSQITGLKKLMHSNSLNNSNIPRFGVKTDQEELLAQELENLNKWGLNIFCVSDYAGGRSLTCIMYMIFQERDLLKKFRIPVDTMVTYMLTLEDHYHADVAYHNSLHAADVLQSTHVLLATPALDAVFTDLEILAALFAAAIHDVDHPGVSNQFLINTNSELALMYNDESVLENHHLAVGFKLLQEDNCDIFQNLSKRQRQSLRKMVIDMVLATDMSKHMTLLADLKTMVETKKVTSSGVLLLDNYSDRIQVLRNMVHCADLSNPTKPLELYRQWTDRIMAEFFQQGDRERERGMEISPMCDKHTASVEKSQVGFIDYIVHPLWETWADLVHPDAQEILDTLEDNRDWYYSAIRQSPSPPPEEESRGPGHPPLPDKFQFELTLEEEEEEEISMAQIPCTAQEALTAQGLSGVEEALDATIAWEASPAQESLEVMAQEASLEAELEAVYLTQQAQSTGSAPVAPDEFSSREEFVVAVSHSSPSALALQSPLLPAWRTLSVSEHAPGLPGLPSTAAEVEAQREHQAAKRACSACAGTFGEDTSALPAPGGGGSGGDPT
UniProt Q13547, whole entry: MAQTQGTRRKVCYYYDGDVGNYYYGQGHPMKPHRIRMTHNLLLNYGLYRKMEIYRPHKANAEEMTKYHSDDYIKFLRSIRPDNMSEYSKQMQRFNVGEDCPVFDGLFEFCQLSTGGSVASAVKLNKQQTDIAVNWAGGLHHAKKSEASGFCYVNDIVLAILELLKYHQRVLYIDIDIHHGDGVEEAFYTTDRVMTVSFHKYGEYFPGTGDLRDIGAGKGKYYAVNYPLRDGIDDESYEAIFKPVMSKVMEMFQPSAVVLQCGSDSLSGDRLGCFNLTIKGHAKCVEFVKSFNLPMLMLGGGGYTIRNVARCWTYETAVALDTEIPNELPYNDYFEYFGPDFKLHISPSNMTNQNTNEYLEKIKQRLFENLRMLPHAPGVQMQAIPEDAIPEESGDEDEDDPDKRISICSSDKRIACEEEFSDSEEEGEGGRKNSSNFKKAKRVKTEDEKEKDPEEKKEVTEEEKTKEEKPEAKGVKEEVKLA

Some compounds may have been tested in ways that are not shown here.

The IC50 is the concentration that inhibits the measured activity by half.

One assay concerns the target PDE4D7 (Homo sapiens, UniProt Q08499). The assay can be described thus: PDE enzyme activity assay (HTRF cGMP), PDE4D7. Particulars: read-out: PDE4D7 inhibition (IC50); recombinant enzyme. (In general: TR-FRET usually uses a lanthanide donor and a delayed reading to cut background.)
Another assay has as its target PDE4A1 (Homo sapiens, UniProt P27815). The assay can be described thus: PDE enzyme activity assay (HTRF cGMP), PDE4A1. It counts as biochemical. The settings on record: read-out: PDE4A1 inhibition (IC50); recombinant enzyme.
A further assay deals with HDAC1 (Homo sapiens, UniProt Q13547). The assay can be described thus: HDAC enzyme activity assay (fluorogenic substrate), HDAC1. Particulars: read-out: HDAC1 inhibition (IC50); recombinant enzyme. It counts as biochemical.

As for `COc1ccc(N(C(=O)c2c(Cl)cncc2Cl)C2CCN(CCCC(=O)NO)CC2)cc1OC1CCCC1`, the IC50 at PDE4D7 was > 10 µM; at PDE4A1, > 10 µM; at HDAC1, 1 to 10 µM.

For `COc1ccc(N(C(=O)c2c(Cl)cncc2Cl)C2CCN(Cc3ccc(/C=C/C(=O)NO)cc3)CC2)cc1OC1CCCC1`, the IC50 at PDE4D7 is > 10 µM; on PDE4A1, > 10 µM; at HDAC1 it was 0.01 to 1 µM.
